From PubChem BioAssay AID493012 (Sanford-Burnham Center for Chemical Genomics, 2011) come the findings set out here.

Chains of the proteins cited; added tags and fusions are not shown.
UniProt Q9HC16, whole entry: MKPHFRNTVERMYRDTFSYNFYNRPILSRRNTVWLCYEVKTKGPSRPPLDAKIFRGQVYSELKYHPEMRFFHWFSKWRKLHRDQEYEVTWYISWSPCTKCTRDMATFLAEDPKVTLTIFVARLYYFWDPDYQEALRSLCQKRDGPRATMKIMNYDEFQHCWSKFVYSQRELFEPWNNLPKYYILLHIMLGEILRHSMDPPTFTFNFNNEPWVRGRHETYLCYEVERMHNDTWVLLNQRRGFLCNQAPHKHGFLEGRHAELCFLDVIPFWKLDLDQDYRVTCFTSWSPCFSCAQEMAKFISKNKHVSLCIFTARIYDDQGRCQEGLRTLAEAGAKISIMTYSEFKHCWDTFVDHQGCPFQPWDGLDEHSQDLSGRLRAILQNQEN

The list shows a part of the results, in another mix than the full data. Calls of active or inactive are those of the source.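 Rule for the calls: active = inhibition of at least 40% at 20 µM, with no more than 30% in the related APOBEC3A deaminase screen; inactive = the rest.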

In the test the target is DNA dC->dU-editing enzyme APOBEC-3G (Homo sapiens) (UniProt Q9HC16). In words: APOBEC3G DNA deaminase inhibitors, primary screen, biochemical, fluorescence, single-stranded DNA substrate, uHTS (AID 493012).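 Note: plate controls were DMSO wells with A3G for no effect and wells lacking A3G enzyme for full effect.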 The following applies: recombinant A3G, ssDNA deamination FAM/TAMRA fluorescence; at 20 µM; hits give high values.
By inhibition is commonly meant the change of the read-out against control, counted positive when it falls. With `CCC(=O)N(c1ccccc1)C1(COC)CCN(CCn2nnn(CC)c2=O)CC1`, the inhibition is inactive: -1.87%.
For `CCC(=O)N(c1ccccc1)C1(COC)CCN(CCc2cccs2)CC1`, the inhibition is inactive: -7.47%.
